Test results reported in publication PMC2774619 (Current Chemical Genomics, 2008).

Chains of the proteins cited; added tags and fusions are not shown. Lines headed by an entry give the natural chain unless they say otherwise; changes in a name come on top.
UniProt P08482: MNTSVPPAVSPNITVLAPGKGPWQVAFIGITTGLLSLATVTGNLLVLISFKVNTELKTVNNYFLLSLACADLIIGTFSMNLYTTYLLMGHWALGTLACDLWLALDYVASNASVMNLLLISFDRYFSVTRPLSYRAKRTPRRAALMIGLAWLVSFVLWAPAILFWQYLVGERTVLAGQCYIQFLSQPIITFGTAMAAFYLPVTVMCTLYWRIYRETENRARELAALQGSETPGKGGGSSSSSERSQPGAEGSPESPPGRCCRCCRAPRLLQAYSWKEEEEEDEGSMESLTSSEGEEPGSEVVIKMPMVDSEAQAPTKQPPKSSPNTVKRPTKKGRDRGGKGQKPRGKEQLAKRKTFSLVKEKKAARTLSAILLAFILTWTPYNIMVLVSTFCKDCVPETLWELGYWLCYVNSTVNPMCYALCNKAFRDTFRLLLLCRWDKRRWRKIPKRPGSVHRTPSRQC
UniProt P12657: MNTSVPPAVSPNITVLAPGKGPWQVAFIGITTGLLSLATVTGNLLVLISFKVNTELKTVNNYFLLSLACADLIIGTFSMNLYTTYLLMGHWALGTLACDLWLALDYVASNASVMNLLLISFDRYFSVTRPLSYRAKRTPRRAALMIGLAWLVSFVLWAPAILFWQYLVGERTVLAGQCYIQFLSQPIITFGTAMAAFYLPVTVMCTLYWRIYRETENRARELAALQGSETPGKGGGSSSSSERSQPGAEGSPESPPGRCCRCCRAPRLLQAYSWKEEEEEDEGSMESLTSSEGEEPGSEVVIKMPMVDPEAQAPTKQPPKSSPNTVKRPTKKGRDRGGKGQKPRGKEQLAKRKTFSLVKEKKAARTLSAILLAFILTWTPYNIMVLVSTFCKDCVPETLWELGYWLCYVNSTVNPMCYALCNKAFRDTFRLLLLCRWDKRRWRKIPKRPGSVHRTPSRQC

Tests used:
[1] = molecular target: murine M1 muscarinic acetylcholine receptor (Rattus norvegicus, UniProt P08482); experiment: HTRF IP-One assay in CHO-M1 cells (1536-well); details: read-out: IC50, IP-One Assay, LOPAC qHTS, 15 concentrations, antagonist mode with EC80 carbachol
[2] = molecular target: murine M1 muscarinic acetylcholine receptor (Mus musculus, UniProt P12657); experiment: Intracellular calcium assay in CHO-M1 cells (1536-well, FDSS-7000); details: read-out: IC50, Calcium Assay, LOPAC qHTS, 15 concentrations, antagonist mode with EC80 carbachol

Row | Substance | pIC50 [1] | pIC50 [2]
1 | N,N,N-trimethyl-1-(4-trans-stilbenoxy)-2-propylammonium | 5.10 | 5.40
2 | 4-DAMP mustard hydrochloride | – | 7.00

pIC50: −log10 of the molar value.
